The text below walks through data of patent US11591319B2, “Small molecule inducers of autophagy” (Board of Regents, The University of Texas System, priority 2018, dated 2023).

The chains behind the UniProt entries cited, without tags or fusion partners. Residues count along the entry.
UniProt P10415, 1-218: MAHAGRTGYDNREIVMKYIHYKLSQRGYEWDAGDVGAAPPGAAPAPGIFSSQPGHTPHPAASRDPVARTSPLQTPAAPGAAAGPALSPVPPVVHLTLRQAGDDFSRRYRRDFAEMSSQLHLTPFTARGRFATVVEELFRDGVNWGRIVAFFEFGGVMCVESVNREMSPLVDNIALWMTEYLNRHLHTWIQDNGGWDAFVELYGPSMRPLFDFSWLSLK

This assay addresses Beclin 1/Bcl-2 interaction (Homo sapiens (Human), UniProt P10415). The assay can be described thus: Beclin 1/Bcl-2 AlphaLISA assay (dose-response). The class given is binding. The text has this: We also developed a high-throughput Beclin 1/Bcl-2 AlphaLISA assay to directly measure the in vitro interaction between Beclin 1 and Bcl-2. AlphaLISA is a bead-based proximity assay that is capable of measuring protein-protein interaction in homogeneous solution.^41 Oxygen singlet molecules are generated by Alpha donor beads upon irradiation at 680 nm and travel to acceptor beads in proximity. […] Thus, a measurable Alpha luminescence signal requires chemical energy transfer between the donor and acceptor beads, and a pair of interacting molecules immobilized on the beads stabilizes bead association to produce measurable Alpha signals.
We used purified recombinant Beclin 1 and Bcl-2 proteins for AlphaLISA, which were optimized for enhanced solubility and expression. Human Beclin 1 was expressed as a fusion protein with StrepII-SUMO at the N-terminus, and three residues on the aromatic finger of Beclin 1 were mutated (F359D/F360D/W361D) to improve solubility and protein stability.^42 These mutations are in the BARA domain, which is far from the BH3 motif recognized by Bcl-2. […] The purpose of a normalization control is to eliminate inner filter (false-positive) hits that reduce luminescence signal by interfering with the AlphaLISA assay in ways that are unrelated to the Beclin 1/Bcl-2 interaction. […]

Molecules are shown by their SMILES.

Broadly, the IC50 is the concentration needed to halve the response being measured. Read a high IC50 as lower potency.

Regarding `CC(=O)c1ccc(C(=O)N2N=C(c3ccc(NC(=O)OC(C)(C)C)cc3)CC2c2ccccc2)cc1` (centres unmarked) [lqr-9-136], the IC50 is 2.5 µM.

For `Cc1cccc(C(=O)N2N=C(c3ccc(NS(C)(=O)=O)cc3)CC2c2ccco2)c1` (centres unmarked) [lqr-8-182], the 50% inhibitory concentration (IC50) was 18.2 µM.
